The list is not random: actives were taken first. Their share in the collection is about 1.7%.
Pin1 inhibitor = blocks the human prolyl isomerase Pin1 | Q13526 | Pin1 FP peptide displacement, HiFluor488, 10 min | Potency, µM (doses to about 115 µM), for inactives: at the highest dose activity, negative = inhibition, actives largely listed as inhibitors | 390,000 compounds, 0.009% hits; active = well fitted inhibition curve with a large enough effect in the polarisation, with a control signal flat, not every such curve was filed as active; inconclusive = small, poorly fitted or top-dose-only effect, or effect the other way, or a change in a side signal; inactive = no such curve, though single readings can be large or run the other way; the % refers to the polarisation; note: potency is the fitted concentration of half-maximal effect; % is set by controls: 0 for no effect and ±100 for the full control effect
PTHR1 agonist = agonists of human PTHR1 parathyroid hormone receptor; Q03431; HEK293 GP2 PTHR1 cells, GloSensor cAMP luminescence, 1 h; Potency, µM (top dose mostly 115 µM), without a hit: top-dose activation, hits mostly activators; 410,000 compounds, 0.075% hits; AID 743266; note: potency is the fitted concentration of half-maximal effect; nearly all actives have a fitted effect of over 55% in size
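HEK-293-derived GP2 cells expressing PTHR1 and a GloSensor cAMP reporter, 3,000/well, plated overnight, given luciferin plus IBMX (each 0.5 mM as added) for 1 h at 37 °C, then compound for 1 h at 37 °C. Luminescence was read after 15 min at room temperature.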
miR-21 FLuc = miR-21 reporter, rising signal; HeLa miR-21 FLuc reporter, luciferase, 48 h; Potency, µM (titrated, usually from 38.3 µM), without a hit: top-dose reporter change, positive = more light; AID 2288; 340,000 tested, under 10 active; active = well fitted rising curve with a large enough effect; inconclusive = small, poorly fitted or top-dose-only effect; inactive = no such curve, though single readings can be large or run the other way;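 further: % of control where 0% means no effect; miR-21 action dims this reporter so a rising signal means less miR-21 action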
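Using DMEM plus 10% FBS, HeLa miR-21-FLuc cells are incubated with test compounds (final up to about 40uM) for 48 hours; firefly luciferase signal is then imaged following reagent-mediated lysis.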
GLP1R cytotox = cytotoxicity counter-screen for GLP-1 receptor inverse agonists. Potency, µM (series often up to 38.3 µM), for inactives: at the top dose activity change, negative = inhibition, most hits filed as inhibitors. 410,000 compounds, 0.13% hits. AID 624418. HEK293 cAMP-luciferase reporter cells, luminescence, 24 h;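 note: loss of luciferase light is scored as toxicity; potency is the fitted concentration of half-maximal effect; % is set by controls: 0 for no effect and ±100 for the full control effect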
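A 23 nL compound transfer followed 12 hours of cell culture at 37 deg C; exposure then lasted 24 hr. Luciferase assay detection reagent was dispensed and plates read for luminescence after a 12 min room-temperature wait.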
GLP1R inv ag = acts as inverse agonist at human GLP-1 receptor. HEK293 GLP-1R CRE-luciferase, luminescence, 24 h; GLP-1R form is constitutively active. Potency, µM (highest dose often 38.3 µM), without a hit: at the highest dose activity change, negative = inhibition, actives largely listed as inhibitors. 410,000 compounds, 1.6% hits; note: potency is the fitted concentration of half-maximal effect; % is set by controls: 0 for no effect and ±100 for the full control effect; nearly all actives have a fitted effect of over 55% in size
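HEK293 cells stably co-expressing a cAMP-responsive luciferase reporter and constitutively active GLP-1R were seeded, incubated 12 h, then exposed to compounds for 24 h at 37 C. Luminescence was read 12 min after detection reagent; inverse agonists lower signal.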
GLP-1R agonist = activates the human GLP-1 receptor; P43220; HEK293 GLP-1R CRE-luciferase, luminescence, 4-6 h; cells express a hypersensitive GLP-1R form; Potency, µM (top dose mostly 45.6 µM), for the others: at the top dose activation, actives largely listed as activators; 380,000 compounds, 0.007% hits; note: potency is the fitted concentration of half-maximal effect; % of control where 0% means no effect
Active calls of the source: *; [ ] = remark or other dose. Unless noted, calls come from the whole dose curve; as a rule, active = well fitted curve in the direction sought with a large enough effect; inconclusive = small, poorly fitted or top-dose-only effect, or another doubt; inactive = no such curve, though single readings can be large; an effect the other way counts as inactive or inconclusive.

Results for Cc1ccc2nc(-c3ccc(NC(=S)NC4CC(C)(C)NC(C)(C)C4)cc3)sc2c1 ?
Pin1 inhibitor: 12%; PTHR1 agonist: -27%; miR-21 FLuc: 36%; GLP1R cytotox: inconclusive; GLP1R inv ag: 5µM*; GLP-1R agonist: 5%

Results for C/C1=C2/[N-]C(C(CC(N)=O)[C@@]2(C)CCC(=O)NCC(C)OP(=O)([O-])O[C@H]2[C@@H](O)[C@@H](n3cnc4cc(C)c(C)cc43)O[C@@H]2CO)[C@]2(C)N=C(/C(C)=C3N=C(/C=C4N=C1C(CCC(N)=O)C\4(C)C)[C@@H](CCC(N)=O)[C@]\3(C)CC(N)=O)[C@@H](CCC(N)=O)[C@]2(C)CC(N)=O.CC(=O)O.[Co] (stereo not given in full) ?
GLP-1R agonist: -7%

What do the screens show for `CC(NC(=O)Nc1nnc(C(F)(F)F)s1)(C(F)(F)F)C(F)(F)F`?
Pin1 inhibitor: 3%; PTHR1 agonist: -26%[57.5 µM]; miR-21 FLuc: 29%; GLP1R cytotox: inconclusive; GLP1R inv ag: 4.5µM*; GLP-1R agonist: -1%

Results for CC(C)(C)CC(=O)Nc1nnc(C(F)(F)F)s1 ?
Pin1 inhibitor: 12%; PTHR1 agonist: -11%[57.5 µM]; miR-21 FLuc: -4%; GLP1R cytotox: 6%; GLP1R inv ag: inconclusive; GLP-1R agonist: -4%

What do the screens show for `COc1cccc(-c2nnc3n2N=C(c2ccccc2OC)CS3)c1`?
Pin1 inhibitor: -2%

Results for CC(=O)N1CCCc2cc(S(=O)(=O)Nc3ccc(C)c(C)c3)ccc21 ?
Pin1 inhibitor: 3%

What do the screens show for `COc1ccc(C(=O)N/N=C/c2ccc(OC)c(CN3CCCc4ccccc43)c2)cc1`?
Pin1 inhibitor: 4%; PTHR1 agonist: inactive; miR-21 FLuc: -9%; GLP1R cytotox: 6%; GLP1R inv ag: 10µM*; GLP-1R agonist: 0%

Results for COc1ccc(/C=N/NC(=O)c2cccnc2)cc1CN1CCCc2ccccc21 ?
Pin1 inhibitor: 5%; PTHR1 agonist: inactive; miR-21 FLuc: 0%; GLP1R cytotox: 7%; GLP1R inv ag: 10µM*; GLP-1R agonist: 8%

Results for CCS(=O)(=O)NCCc1sc2nc(-c3ccc(OC)cc3)nn2c1C ?
Pin1 inhibitor: 3%; PTHR1 agonist: -14%; miR-21 FLuc: 6%; GLP1R cytotox: -7%; GLP1R inv ag: -17%

What do the screens show for `COc1cc(-c2noc(-c3ccc(NCc4ccco4)c([N+](=O)[O-])c3)n2)cc(OC)c1OC`?
Pin1 inhibitor: 27%; PTHR1 agonist: inactive; miR-21 FLuc: -17%; GLP1R cytotox: 0%; GLP1R inv ag: 4%

Results for O=C(N/N=C/c1ccc(O)cc1)c1ccc(COc2cc(Cl)ccc2Cl)o1 ?
Pin1 inhibitor: 31%; PTHR1 agonist: -12%; miR-21 FLuc: 8%; GLP1R cytotox: -28%; GLP1R inv ag: 1.4µM*; GLP-1R agonist: -4%

Results for CCN(CC)c1cc(C)c2cc(NC(=O)c3cccc(OC)c3)ccc2n1 ?
Pin1 inhibitor: 1%; PTHR1 agonist: inactive; miR-21 FLuc: 19%; GLP1R cytotox: -27%; GLP1R inv ag: 10µM*; GLP-1R agonist: 0%

What do the screens show for `CCN(CC)c1cc(C)c2cc(NC(=O)/C=C/c3cc(OC)c(OC)c(OC)c3)ccc2n1`?
Pin1 inhibitor: 15%; PTHR1 agonist: inactive; miR-21 FLuc: 15%; GLP1R cytotox: inconclusive; GLP1R inv ag: 11µM*

How did CCOc1ccc(/C=C/C(=O)Nc2ccc3nc(N(CC)CC)cc(C)c3c2)cc1OC do in these assays?
Pin1 inhibitor: 29%; PTHR1 agonist: -18%; miR-21 FLuc: inconclusive; GLP1R cytotox: -25%; GLP1R inv ag: inconclusive

What do the screens show for `Cc1ccc(CNc2ncnc3ccc(-c4ccc5c(c4)OCO5)cc23)s1`?
Pin1 inhibitor: 11%

Results for COc1cc(CNCc2ccccc2Cl)ccc1OCC(=O)NC1CCCCC1 ?
Pin1 inhibitor: 1%; PTHR1 agonist: inactive; miR-21 FLuc: -3%; GLP1R cytotox: -26%; GLP1R inv ag: 10µM*; GLP-1R agonist: 13%

Results for CN(C(=S)Nc1ccc(SC(F)F)cc1)C(c1ccccc1)c1ccccc1 ?
Pin1 inhibitor: 2%; PTHR1 agonist: -44%; miR-21 FLuc: 21%; GLP1R cytotox: -20%; GLP1R inv ag: inconclusive; GLP-1R agonist: -1%

What do the screens show for `FC(F)Sc1ccc(NC(=S)NC(c2ccccc2)c2ccccc2)cc1`?
Pin1 inhibitor: -4%; PTHR1 agonist: -25%; miR-21 FLuc: inconclusive; GLP1R cytotox: inconclusive; GLP1R inv ag: 4µM*; GLP-1R agonist: -5%

How did CCOc1ccc2ccccc2c1C(=O)N1CCN(c2ccccc2)CC1 do in these assays?
Pin1 inhibitor: 4%; PTHR1 agonist: inactive; miR-21 FLuc: 20%; GLP1R cytotox: inconclusive; GLP1R inv ag: 7.9µM*; GLP-1R agonist: 7%

How did CCOc1ccccc1C(=O)N1CCN(c2cccc(Cl)c2)CC1 do in these assays?
Pin1 inhibitor: 1%; PTHR1 agonist: inactive; miR-21 FLuc: 29%; GLP1R cytotox: -39%; GLP1R inv ag: 0%; GLP-1R agonist: 13%

What do the screens show for `COc1ccccc1CNC(=O)CSc1nc(=O)[nH]c2c1CCCC2`?
Pin1 inhibitor: -8%; PTHR1 agonist: -7%; miR-21 FLuc: 0%; GLP1R cytotox: 0%; GLP1R inv ag: -5%

Results for CC(NC(=O)C(Cc1ccccc1)n1cccc1)c1ccccc1 (stereo not given) ?
Pin1 inhibitor: 20%; PTHR1 agonist: inactive; miR-21 FLuc: 0%; GLP1R cytotox: 2%; GLP1R inv ag: 11µM*; GLP-1R agonist: 6%

How did Cc1ccc(CNC(=O)C(Cc2ccccc2)n2cccc2)cc1 (stereo not given) do in these assays?
Pin1 inhibitor: 4%; PTHR1 agonist: -1%; miR-21 FLuc: -1%; GLP1R cytotox: 3%; GLP1R inv ag: inconclusive; GLP-1R agonist: 12%

How did CCOC(=O)c1cccc(NC(=O)c2ncoc2-c2ccco2)c1 do in these assays?
Pin1 inhibitor: -1%; PTHR1 agonist: -18%; miR-21 FLuc: -9%; GLP1R cytotox: 8%; GLP1R inv ag: 7%

What do the screens show for `CCOC(=O)c1cccc(NC(=O)c2oc3c(c2C)-c2nn(CC)cc2CC3)c1`?
Pin1 inhibitor: 7%; PTHR1 agonist: 1%; miR-21 FLuc: 6%; GLP1R cytotox: 3%; GLP1R inv ag: 4%

Results for O=S(=O)(c1ccc2c(c1)OCCO2)N1CCN(S(=O)(=O)c2ccc(F)cc2F)CC1 ?
Pin1 inhibitor: -6%

Random excerpt: three records from the list, in no set order.
What do the screens show for `COc1ccccc1CNC(=O)CSc1nc(=O)[nH]c2c1CCCC2`?
Pin1 inhibitor: -8%; PTHR1 agonist: -7%; miR-21 FLuc: 0%; GLP1R cytotox: 0%; GLP1R inv ag: -5%

How did Cc1ccc(CNC(=O)C(Cc2ccccc2)n2cccc2)cc1 (stereo not given) do in these assays?
Pin1 inhibitor: 4%; PTHR1 agonist: -1%; miR-21 FLuc: -1%; GLP1R cytotox: 3%; GLP1R inv ag: inconclusive; GLP-1R agonist: 12%

How did CCOC(=O)c1cccc(NC(=O)c2ncoc2-c2ccco2)c1 do in these assays?
Pin1 inhibitor: -1%; PTHR1 agonist: -18%; miR-21 FLuc: -9%; GLP1R cytotox: 8%; GLP1R inv ag: 7%

Source: PubChem BioAssay (National Center for Advancing Translational Sciences (NCATS))
